Source: ChEMBL document CHEMBL1129802, “Novel phenyl nitrogen mustard and half-mustard derivatives of amidino-modified distamycin” (1997)

System: Mus musculus
Test: Optimal dose in mice (sub LD10 mg/kg).

Compound	OD
Cn1cc(NC(=O)c2cc(NC(=O)c3cc(NC(=O)/C=C/c4ccc(N(CCCl)CCCl)cc4)cn3C)cn2C)cc1C(=O)NCCC(=N)NC#N	12.5 mg/kg
CCN(CCCl)c1ccc(C(=O)Nc2cc(C(=O)Nc3cc(C(=O)Nc4cc(C(=O)NCCC(=N)N)n(C)c4)n(C)c3)n(C)c2)cc1.Cl	3.13 mg/kg
C/N=C(/CCNC(=O)c1cc(NC(=O)c2cc(NC(=O)c3cc(NC(=O)/C=C/c4ccc(N(CCCl)CCCl)cc4)cn3C)cn2C)cn1C)NC.Cl	1.56 mg/kg
Cl.Cn1cc(NC(=O)c2cc(NC(=O)c3cc(NC(=O)/C=C/c4ccc(N(CCCl)CCCl)cc4)cn3C)cn2C)cc1C(=O)NCCC(=N)N	6.25 mg/kg
C/N=C(/CCNC(=O)c1cc(NC(=O)c2cc(NC(=O)c3cc(NC(=O)c4ccc(N(CCCl)CCCl)cc4)cn3C)cn2C)cn1C)NC.Cl	3.13 mg/kg
CNC(=N)CCNC(=O)c1cc(NC(=O)c2cc(NC(=O)c3cc(NC(=O)c4ccc(N(CCCl)CCCl)cc4)cn3C)cn2C)cn1C.Cl	3.13 mg/kg
Cn1cc(NC(=O)c2cc(NC(=O)c3cc(NC(=O)/C=C/c4ccc(N(CCCl)CCCl)cc4)cn3C)cn2C)cc1C(=O)NCCC(=N)NO	6.25 mg/kg
CNC(=N)CCNC(=O)c1cc(NC(=O)c2cc(NC(=O)c3cc(NC(=O)/C=C/c4ccc(N(CCCl)CCCl)cc4)cn3C)cn2C)cn1C.Cl	3.13 mg/kg
Cn1cc(NC(=O)c2cc(NC(=O)c3cc(NC(=O)c4ccc(N(CCCl)CCCl)cc4)cn3C)cn2C)cc1C(=O)NCCC(=N)NO	12.5 mg/kg
CCN(CCCl)c1ccc(C(=O)Nc2cc(C(=O)Nc3cc(C(=O)Nc4cc(C(=O)NCCN=C(N)N)n(C)c4)n(C)c3)n(C)c2)cc1.Cl	6.25 mg/kg
Cl.Cn1cc(NC(=O)c2cc(NC(=O)c3cc(NC(=O)c4ccc(N(CCCl)CCCl)cc4)cn3C)cn2C)cc1C(=O)NCCN=C(N)N	12.5 mg/kg
Cn1cc(NC(=O)c2cc(NC(=O)c3cc(NC(=O)c4ccc(N(CCCl)CCCl)cc4)cn3C)cn2C)cc1C(=O)NCCC#N	25 mg/kg
Cn1cc(NC(=O)c2cc(NC(=O)c3cc(NC(=O)c4ccc(N(CCCl)CCCl)cc4)cn3C)cn2C)cc1C(=O)NCCC(=O)O	50 mg/kg
Cl.Cn1cc(NC(=O)c2cc(NC(=O)c3cc(NC(=O)c4ccc(N(CCCl)CCCl)cc4)cn3C)cn2C)cc1C(=O)NCCCc1ncc[nH]1	6.25 mg/kg
Cn1cc(NC(=O)c2cc(NC(=O)c3cc(NC(=O)c4ccc(N(CCCl)CCCl)cc4)cn3C)cn2C)cc1C(=O)NCCC(=N)NC#N	6.25 mg/kg
Cn1cc(NC(=O)c2cc(NC(=O)c3cc(NC(=O)c4ccc(N(CCCl)CCCl)cc4)cn3C)cn2C)cc1C(=O)NCCC(=N)NN	12.5 mg/kg
CCN(CCCl)c1ccc(C(=O)Nc2cc(C(=O)Nc3cc(C(=O)Nc4cc(C(=O)NCCC(=N)NC)n(C)c4)n(C)c3)n(C)c2)cc1.Cl	3.13 mg/kg
CN(C)CCCNC(=O)c1cc(NC(=O)c2cc(NC(=O)c3cc(NC(=O)c4ccc(N(CCCl)CCCl)cc4)cn3C)cn2C)cn1C.Cl	25 mg/kg
CCN(CCCl)c1ccc(C(=O)Nc2cc(C(=O)Nc3cc(C(=O)Nc4cc(C(=O)NCCC(=N)NC#N)n(C)c4)n(C)c3)n(C)c2)cc1	6.25 mg/kg
Cl.Cn1cc(NC(=O)c2cc(NC(=O)c3cc(NC(=O)/C=C/c4ccc(N(CCCl)CCCl)cc4)cn3C)cn2C)cc1C(=O)NCCN=C(N)N	3.13 mg/kg
